Test results as given in PubChem BioAssay AID2690 (NMMLSC, 2010).
This is a selection; strong and weak results do not stand in their true shares. Some salts or complexes appear as unconnected parts, following the source record. Activity calls are given as the source filed them.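 Rule for the calls: active = superoxide response under a set limit, about three screen SD below normal (cut at about 65% in these data); inactive = the rest.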

Assay: reduction of superoxide in aged yeast, primary screen, HTS (AID 2690);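 note: yeast aged for seven days with compound at 30 °C before DHE staining; 100% = average MFI of all compound-treated wells on the plate with controls excluded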
Conditions: S. cerevisiae aged cells, superoxide DHE fluorescence; at 10 µM; hits give low values

| Structure (SMILES) | superoxide response (% of plate mean) |
| --- | --- |
| CP(=O)(Nc1ccc(SC(F)(F)F)cc1)Oc1ccc(F)cc1 (configuration not stated) | inactive: 99.7% |
| CCOP(C)(=S)SCC(=O)NC(C)(CC)C(=O)O (configuration not stated) | inactive: 101% |
| CP(=O)(Nc1ccc2c(c1)OCCO2)Oc1ccccc1 (configuration not stated) | inactive: 99.7% |
| Cc1ccccc1NP(C)(=O)Nc1ccccc1C | inactive: 111% |
| COc1ccc(OP(C)(=O)Nc2cccc(Br)c2)cc1 (configuration not stated) | inactive: 102% |
| CN(C)CCOC(=O)C(O)(c1ccccc1)C1CCCCC1 (configuration not stated) | inactive: 107% |
| COc1ccc(NP(C)(=O)Oc2ccccc2OC)cc1 (configuration not stated) | inactive: 97.4% |
| O=[N+]([O-])c1ccc(OP2(=O)COCCO2)cc1 (configuration not stated) | inactive: 97.1% |
| O=[N+]([O-])c1cc([N+](=O)[O-])c(NCC2CCS(=O)(=O)C2)c([N+](=O)[O-])c1 (configuration not stated) | inactive: 157% |
| CCOC(=O)c1ccc(NP(C)(=O)Oc2ccc(F)cc2)cc1 (configuration not stated) | inactive: 94.5% |
| COc1ccc(OP(C)(=O)Nc2ccc(SC(F)(F)F)cc2)cc1 (configuration not stated) | inactive: 116% |
| CCN(CC)CCCOC(=O)C(O)(c1ccccc1)C1CCCCC1 (configuration not stated) | inactive: 102% |
| CP(=O)(Nc1ccccc1)Oc1ccc(F)cc1 (configuration not stated) | inactive: 114% |
| O=[N+]([O-])c1cc([N+](=O)[O-])c(OC2CCCCC2O)c([N+](=O)[O-])c1 (configuration not stated) | inactive: 108% |
| CCCCCOc1ccc(NP(C)(=O)Oc2ccc(Cl)cc2Cl)cc1 (configuration not stated) | inactive: 99.4% |
| CP(=O)(Nc1ccccc1F)Oc1ccccc1 (configuration not stated) | inactive: 102% |
| CC(C)c1ccc(OP(C)(=O)Nc2ccc(SC(F)(F)F)cc2)cc1 (configuration not stated) | inactive: 93.4% |
| O=C(OC1CN2CCC1CC2)c1ccc([N+](=O)[O-])cc1 (configuration not stated) | inactive: 104% |
| O=C(OCCN1CCN(CCOCc2ccccc2)CC1)C(O)(c1ccccc1)c1ccccc1 | inactive: 83.2% |
| COc1ccc2c(c1O)-c1c(O)c(OC)cc3c1[C@H](C2)[N+](C)(C)CC3.O=[N+]([O-])c1cc([N+](=O)[O-])c([O-])c([N+](=O)[O-])c1[O-] | inactive: 113% |
| COc1ccccc1OP(C)(=O)Nc1ccc(Br)cc1 (configuration not stated) | inactive: 110% |

| Structure (SMILES) | superoxide response (% of plate mean) |
| --- | --- |
| COc1ccc(OP(C)(=O)Nc2ccccn2)cc1 (configuration not stated) | inactive: 107% |
| CN(C)CCOC(=O)C(O)(c1ccccc1)C1CCCC1 (configuration not stated) | inactive: 90.5% |
| O=[N+]([O-])c1cc([N+](=O)[O-])c(Nc2ccccn2)c([N+](=O)[O-])c1 | inactive: 108% |
| Cc1c(NP(C)(=O)Oc2ccc(C(C)C)cc2)c(=O)n(-c2ccccc2)n1C (configuration not stated) | inactive: 102% |
| COc1ccccc1OP(C)(=O)Nc1ccc(C)cc1C (configuration not stated) | inactive: 94% |
| CP(=O)(Nc1ccccn1)Oc1ccccc1 (configuration not stated) | inactive: 108% |
| CCc1ccc(OP(C)(=O)O)cc1 | inactive: 104% |
| Cc1cc(C)cc(OP(C)(=O)Nc2cccc(C(F)(F)F)c2)c1 (configuration not stated) | inactive: 109% |
| COc1ccccc1OP(C)(=O)Nc1ccc(C)c(C)c1 (configuration not stated) | inactive: 90.9% |
| COc1ccc(OP(C)(=O)Nc2ccccc2Br)cc1 (configuration not stated) | inactive: 94.1% |
| Cc1nc2ccc3ccccc3c2o1.O=[N+]([O-])c1cc([N+](=O)[O-])c(O)c([N+](=O)[O-])c1 | inactive: 126% |
| CP(=O)(OCCOc1ccccc1)OCCOc1ccccc1 | inactive: 112% |
| CP(=O)(Nc1ccc(Cl)cc1Cl)Oc1ccccc1 (configuration not stated) | inactive: 98.3% |
| Nc1ccc2c(ccc3cccnc32)n1.O=[N+]([O-])c1cc([N+](=O)[O-])c(O)c([N+](=O)[O-])c1 | inactive: 110% |
| CCOC(=O)c1ccc(NP(C)(=O)Oc2ccc(Cl)cc2)cc1 (configuration not stated) | inactive: 113% |
| CP(=O)(OC12CC3CC(CC(C3)C1)C2)OC12CC3CC(CC(C3)C1)C2 | inactive: 124% |
| COc1ccc(OP(C)(=O)Nc2ccc(Br)cc2)cc1 (configuration not stated) | inactive: 96.4% |
| CCN(CC)CC(O)COC(=O)C(O)(c1ccccc1)C1CCCCC1 (configuration not stated) | inactive: 106% |
| O=C(OCCCN1CCCC1)C(O)(c1ccccc1)C1CCCCC1 (configuration not stated) | inactive: 112% |
| COc1ccccc1OP(C)(=O)Nc1c(C)n(C)n(-c2ccccc2)c1=O (configuration not stated) | inactive: 98.2% |
| CCc1ccc(OP(C)(=O)Nc2cccnc2)cc1 (configuration not stated) | inactive: 84.4% |

| Structure (SMILES) | superoxide response (% of plate mean) |
| --- | --- |
| CP(=O)(Oc1ccccc1)N1CCOC1=O (configuration not stated) | inactive: 100% |
| CC(C)(C)c1ccc(OP(C)(=O)O)cc1 | inactive: 98.8% |
| COc1ccccc1OP(C)(=O)Nc1ccccc1Br (configuration not stated) | inactive: 100% |
| CP(=O)(Nc1ccc(Cl)cc1)Oc1ccc(F)cc1 (configuration not stated) | inactive: 91.6% |
| CN(C)C(=O)c1c([N+](=O)[O-])cc([N+](=O)[O-])cc1[N+](=O)[O-] | inactive: 126% |
| CP(=O)(Oc1ccccc1)OC(c1ccccc1)C(F)(F)F (configuration not stated) | inactive: 92.4% |
| CP(=O)(Nc1ccc(SC(F)(F)F)cc1)Oc1ccc(Cl)cc1 (configuration not stated) | inactive: 105% |
| Cc1cccc(C)c1OP(C)(=O)Nc1ccc(SC(F)(F)F)cc1 (configuration not stated) | inactive: 103% |
| Cc1cc(C)cc(OP(C)(=O)Nc2ccc(SC(F)(F)F)cc2)c1 (configuration not stated) | inactive: 99.2% |
| CCc1ccc(OP(C)(=O)N2CCN(c3ccc([N+](=O)[O-])cc3)CC2)cc1 (configuration not stated) | inactive: 92.1% |
| CP(=O)(NC(=O)Nc1ccccc1)Oc1ccccc1 (configuration not stated) | inactive: 106% |
| O=[N+]([O-])c1cc([N+](=O)[O-])c(O)c([N+](=O)[O-])c1.c1ccc(Oc2ccncc2)cc1 | inactive: 133% |
| CCOC(=O)c1ccc(NP(C)(=O)Oc2ccc(OC)cc2)cc1 (configuration not stated) | inactive: 105% |
| CCOP(C)(=S)SCC(=O)NC(C)C(=O)O (configuration not stated) | inactive: 92.8% |
| CP(=O)(Nc1ccccn1)Oc1ccc(Cl)cc1 (configuration not stated) | inactive: 90.7% |
| CP(=S)(Nn1cnnc1)Oc1ccccc1 (configuration not stated) | inactive: 89.5% |
| CP(=O)(Nc1ccccc1Br)Oc1ccccc1 (configuration not stated) | inactive: 96.3% |
| COc1ccccc1OP(C)(=O)Nc1ccccc1 (configuration not stated) | inactive: 87.7% |
| O=[N+]([O-])c1cc([N+](=O)[O-])c(Nc2cccnc2)c([N+](=O)[O-])c1 | inactive: 100% |
| O=[N+]([O-])c1ccc2c(c1)C=Nc1ccccc1O2 | inactive: 84.8% |
